# Antibody variant affinities, Ab-14 light chain, assay B

Target peptide (SARS-CoV-2 spike, HR2 region): PDVDLGDISGINAS

Parent scFv Ab-14: VH joined to VL by a 15-residue (Gly4Ser)3 linker. Changes lie in the light chain CDRs alone.
VH: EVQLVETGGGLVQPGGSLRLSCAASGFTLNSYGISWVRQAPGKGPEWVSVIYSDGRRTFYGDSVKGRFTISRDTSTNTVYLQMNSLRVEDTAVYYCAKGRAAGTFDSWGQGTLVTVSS
VL: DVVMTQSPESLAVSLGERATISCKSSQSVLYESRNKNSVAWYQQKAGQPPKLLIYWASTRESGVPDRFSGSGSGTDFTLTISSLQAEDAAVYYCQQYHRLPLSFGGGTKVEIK

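Phage display of a naive human antibody library on the peptide gave the parent. These sequences belong to a second round, designed from the earlier measurements on random variants of the parent. Their group label is 14L_GP_Gen (GP: Gaussian process model; Gen: genetic algorithm; a sequence that several methods proposed may carry one label only). In AlphaSeq, yeast of one mating type display the scFv and yeast of the other type display the target. After mating in shaken culture at 30 °C for 16 h, diploids were selected and their barcode pairs sequenced. Read counts were normalised to the haploid input and turned into Kd by a linear fit to BCL2-family pairs of known affinity, for each replicate. The assay was run in six technical replicates.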

The parent's light chain CDRs are KSSQSVLYESRNKNSVA, WASTRES, QQYHRLPLS; each variant's own CDRs replace them letter for letter.
Values are log10 of the apparent Kd in nM; lower means stronger binding.
The authors' rule: three or more of the six replicates give a measured affinity, fewer mean a poor binder.

{"CDR-L1": "KLSQSVLYEERNKNSVA", "CDR-L2": "NGSTRES", "CDR-L3": "QQYHRLPLS", "replicates, log10 nM": "-0.38 / -0.35 / -0.40 / -0.56 / -0.53 / -0.32", "empty controls": "0 of 18"}
{"CDR-L1": "KLQQSVDYESRNKNSVA", "CDR-L2": "EASTRES", "CDR-L3": "QQYHRLPLS", "replicates, log10 nM": "-0.05 / -0.05 / -0.27 / -0.36 / -0.25 / 0.00", "empty controls": "0 of 18"}
{"CDR-L1": "HLSQSVLYESRNKNSVA", "CDR-L2": "NASTRMQ", "CDR-L3": "QQYHRLPLS", "replicates, log10 nM": "-0.15 / -0.37 / -0.12 / -0.20 / -0.12 / 0.14", "empty controls": "0 of 18"}
{"CDR-L1": "KMSQSVLYESRNKNNVA", "CDR-L2": "DASQRES", "CDR-L3": "QQYHRLPLS", "replicates, log10 nM": "-0.35 / -0.56 / -0.49 / -0.63 / -0.59 / -0.37", "empty controls": "1 of 18 (4.25)"}
{"CDR-L1": "KFSQSQGYESRNKNSVA", "CDR-L2": "NASTRES", "CDR-L3": "QQYHRLPLS", "replicates, log10 nM": "0.27 / 0.17 / 0.01 / 0.25 / -0.10 / 0.18", "empty controls": "1 of 18 (2.16)"}
{"CDR-L1": "KLSQSQLYESRNKNSVA", "CDR-L2": "EASQRES", "CDR-L3": "QQYHRLPLS", "replicates, log10 nM": "0.40 / 0.21 / -0.13 / 0.05 / 0.01 / 0.09", "empty controls": "0 of 18"}
{"CDR-L1": "KLMQSMLYESRNKNSVA", "CDR-L2": "NASTRLS", "CDR-L3": "QQYHRLPLS", "replicates, log10 nM": "-0.15 / -0.18 / -0.23 / -0.40 / -0.23 / -0.01", "empty controls": "1 of 18 (3.16)"}
{"CDR-L1": "KLYQSVEYESRNKNSVA", "CDR-L2": "NASTRES", "CDR-L3": "QQYHRLPLS", "replicates, log10 nM": "-0.02 / -0.15 / -0.19 / -0.34 / -0.18 / -0.11", "empty controls": "0 of 18"}
{"CDR-L1": "KLLQSQLYESRNKNSVA", "CDR-L2": "NASTRES", "CDR-L3": "QQYHRLPLS", "replicates, log10 nM": "-0.27 / -0.32 / -0.38 / -0.26 / -0.24 / 0.03", "empty controls": "2 of 18 (2.95)"}
{"CDR-L1": "KVSQSVLYEDRNKNSVA", "CDR-L2": "NASTRCS", "CDR-L3": "QQYHRLPLS", "replicates, log10 nM": "-0.08 / -0.49 / -0.36 / -0.55 / -0.37 / -0.20", "empty controls": "0 of 18"}
{"CDR-L1": "KFQQSWLYESRNKNSVA", "CDR-L2": "NASTRMS", "CDR-L3": "QQYHRLPLS", "replicates, log10 nM": "-0.39 / 0.22 / -0.14 / -0.30 / 0.02 / 0.10", "empty controls": "0 of 18"}
{"CDR-L1": "KLSQSWLYESRNKNSVA", "CDR-L2": "NASQREW", "CDR-L3": "QQYHRLPLS", "replicates, log10 nM": "-0.14 / -0.28 / -0.31 / -0.34 / -0.19 / -0.09", "empty controls": "0 of 18"}
{"CDR-L1": "KLSQSVLYESRQKNSVA", "CDR-L2": "DASTRES", "CDR-L3": "QQYHRLPLS", "replicates, log10 nM": "-0.30 / -0.46 / -0.43 / -0.53 / -0.52 / -0.26", "empty controls": "2 of 18 (2.31)"}
{"CDR-L1": "KLQQSVLYESRNKNSVA", "CDR-L2": "NASTREK", "CDR-L3": "QQYHRLPLS", "replicates, log10 nM": "-0.07 / -0.15 / -0.18 / -0.19 / -0.25 / 0.01", "empty controls": "1 of 18 (2.27)"}
{"CDR-L1": "KMSQSVLYESRNKNSVA", "CDR-L2": "NASTRES", "CDR-L3": "QQYHRLPLM", "replicates, log10 nM": "0.00 / -0.04 / 0.05 / -0.17 / -0.07 / 0.18", "empty controls": "2 of 18 (2.78)"}
{"CDR-L1": "KVSQSEPYESRNKNSVA", "CDR-L2": "NASTRES", "CDR-L3": "QQYHRLPLS", "replicates, log10 nM": "-0.04 / -0.07 / -0.18 / -0.40 / -0.16 / -0.05", "empty controls": "3 of 18 (2.93)"}
{"CDR-L1": "KLQQSWLYESRNKNSVA", "CDR-L2": "NASTREW", "CDR-L3": "QQYHRLPLS", "replicates, log10 nM": "0.13 / 0.09 / -0.24 / 0.18 / -0.08 / 0.19", "empty controls": "0 of 18"}
{"CDR-L1": "KLSYSWLYESRNKNSVA", "CDR-L2": "GASTRES", "CDR-L3": "QQYHRLPLS", "replicates, log10 nM": "0.06 / -0.12 / -0.25 / -0.39 / -0.08 / 0.00", "empty controls": "0 of 18"}
{"CDR-L1": "KVSQSVLYEDRNKNSVA", "CDR-L2": "NASTRES", "CDR-L3": "QQYHRLPLS", "replicates, log10 nM": "0.22 / 0.42 / 0.25 / 0.25 / 0.25 / 0.09", "empty controls": "0 of 18"}

A sequence measured in both rounds can read differently, since the two assays cover different ranges.
Nonspecific signal, from three strains lacking the peptide, appeared in 4% of pairings of all light chain designs, centred on 2.64 (5% of these signals below 1.59); values are not corrected for it. For each scFv, signals with the empty controls are counted beside the result, with their mean in brackets.

From the AlphaSeq antibody data of Li et al. 2023 (doi:10.1038/s41467-023-39022-2), copy in the FLAb collection.